“Also recorded” adds a separate entry of the source. Like-named read-outs stand apart in the source and are kept apart here.
Experiments:
Erwinia amylovora [1] = assay: Fluorescence microscopy LIVE/DEAD BacLight (SYTO9/PI); type: cell-based, Erwinia amylovora strain PGL Z1; conditions: 1 h; for % of viability: calculated from SYTO9 and PI counts
Description: The bactericidal activity of the selected peptides (GF19, FG22, IL14, and KL29) was assessed by a test contact for 24 h, as described (Section 2.3), coupled with v-qPCR assay using the PMAxx™ (Biotium, Rome, Italy). PMAxx™ is a photo-reactive dye that binds to DNA with high affinity; upon cell lysis, it covalently attaches to disrupted DNA that cannot be amplified by PCR. This unique feature makes PMAxx™ extremely useful in selective detection of bacterial cells with intact plasma membranes by qPCR. Briefly, after 24 h at 25 °C, 200 µL of the mixture was transferred to a new tube and treated with PMAxx at a final concentration of 7.5 μM. Subsequently, samples were incubated in the dark at room temperature for 8 min, followed by photoactivation for 15 min. Genomic DNA of all samples was extracted using the cetyltrimethylammonium bromide (CTAB) method. v-qPCR was carried out in a thermocycler apparatus (Bio-Rad CFX96, BioRad, Milan, Italy), using Ea-lsc primers and conditions reported in Laforest et al.. The v-qPCR cycles consisted of an initial denaturation step of 95 °C for 5 min; 45 cycles of 95 °C for 30 s and 60 °C for 30 s with fluorescence readings at each cycle. For the FM assay, aliquots of E. amylovora suspension were incubated with 50 and 250 μM of selected peptides for 1 h at room temperature. The same protocol was used for X. campestris at different concentrations (100, 50, 25, 12.5, 6.25, 2 μM) using KL29 peptide, known for its potent bactericidal activity against X. campestris. The LIVE/DEAD ®BacLight™ viability kit (ThermoFisher Scientific, Milan, Italy) was used according to the manufacturer’s recommendation to assess the integrity of bacteria cells treated with the peptides at 1 h post-infection (Stocks, 2004). Briefly, 9 μL of sample was mixed with 0.5 μL of SYTO9 and 0.5 μL of propidium iodide (PI) for 15 min at room temperature in the dark. Photomicrographs were taken with a Nikon E800 microscope using a fluorescein isothiocyanate (480/30 excitation filter, DM505 dichroic mirror, 535/40 emission filter) and tetramethyl rhodamine isocyanate (546/10 excitation filter, DM575 dichroic mirror, 590 emission filter) fluorescence filter sets.
Supplementary Table S2. The statistical analysis consisted of counting the coloured spo ts (green: SYTO9 and red: PI) in the different channels of 10 replicas for the two concentrations of each antimicrobial peptide and the relative percentages of viable cells is calculated.
250 µM 50 µM % of viability
(1 picture or pasted object on this page, not shown here)

horse erythrocyte cells = type: cell-based; conditions: peptide 50 and 250 µM, 3 h, light microscope
Description: (§1) The possible toxicity of the selected peptides was evaluated using immature pear fruits (cv. ‘Recchia falsa’), and horse erythrocyte cells, respectively, as plant and animal cell models. Briefly, six fruits for each peptide were pricked to approximately 5 mm deep and inoculated with 100 µL of the corresponding peptide at 50 and 250 µM concentrations. Fruits were kept in a chamber at room temperature for 5 days and repeatedly examined for the development of lesions. The peptide toxicity was measured as lesion diameter. Erythrocytes from a horse blood sample (provided by the University of Bari, Department of Veterinary Medicine, Valenzano, Italy) were used for the hemolytic assay. The erythrocytes were challenged with AMPs at 50 and 250 µM for 3 h and their possible hemolytic activity was observed under light microscope.

Erwinia amylovora [2] = assay: In vivo antibacterial activity on inoculated immature pear fruits; design: species or system Erwinia amylovora on pear fruits (cv. 'Recchia falsa'); conditions: immature pears, 6 days at 25 °C, eight replicates
Description: To evaluate the in vivo antibacterial activity of selected AMPs, immature pear fruits (cv. ‘Recchia falsa’) were inoculated with E. amylovora and AMPs were applied. Briefly, ten-week-old pears were disinfected by immersion in a 70% ethanol solution for 2 min and then rinsed 3 times in sterile distilled water. Disinfected fruits were pricked to approximately 5 mm deep, with a sterile micropipette tip and inoculated with 20 µL of E. amylovora suspension (10^8 CFU/mL). Once the fruits had absorbed the bacteria, two concentrations of peptides (50 and 250 µM) were used; 20 µL of the concentration was introduced into the inoculation site and incubated in a humid chamber at 25 °C for 6 days. Fruits inoculated with sterile water and with E. amylovora suspension were included as controls. The experiment consisted of eight replicates per treatment, and symptoms were recorded at 6 days post-infection. The symptoms developed in immature pears (i.e., necrosis or bacterial exudates) were evaluated by measuring the diameter of necrotic lesions. The data were then analyzed using variance analysis (ANOVA), followed by Duncan’s multiple range test (α = 0.05), using SPSS statistical software (version 24.0, IBM, Armonk, N.Y., USA). All data were presented as mean values ± standard deviation (SD).

[3] = tested on: Xanthomonas campestris pv. campestris; assay: Fluorescence microscopy LIVE/DEAD BacLight (SYTO9/PI); type: cell-based, Xanthomonas campestris pv. campestris strain CFBP 1710; conditions: KL29 at 100, 50, 25, 12.5, 6.25, 2 µM, 1 h
Description: The bactericidal activity of the selected peptides (GF19, FG22, IL14, and KL29) was assessed by a test contact for 24 h, as described (Section 2.3), coupled with v-qPCR assay using the PMAxx™ (Biotium, Rome, Italy). PMAxx™ is a photo-reactive dye that binds to DNA with high affinity; upon cell lysis, it covalently attaches to disrupted DNA that cannot be amplified by PCR. This unique feature makes PMAxx™ extremely useful in selective detection of bacterial cells with intact plasma membranes by qPCR. Briefly, after 24 h at 25 °C, 200 µL of the mixture was transferred to a new tube and treated with PMAxx at a final concentration of 7.5 μM. Subsequently, samples were incubated in the dark at room temperature for 8 min, followed by photoactivation for 15 min. […] The v-qPCR cycles consisted of an initial denaturation step of 95 °C for 5 min; 45 cycles of 95 °C for 30 s and 60 °C for 30 s with fluorescence readings at each cycle. […] Photomicrographs were taken with a Nikon E800 microscope using a fluorescein isothiocyanate (480/30 excitation filter, DM505 dichroic mirror, 535/40 emission filter) and tetramethyl rhodamine isocyanate (546/10 excitation filter, DM575 dichroic mirror, 590 emission filter) fluorescence filter sets.

Erwinia amylovora [4] = assay: Spot test screening of AMPs on plates; type: cell-based, Erwinia amylovora strain PGL Z1; design: key to Spot test result at 1 mM / Spot test result at 500 µM / Spot test result at 250 µM / Spot test result at 100 µM / Spot test result at 50 µM / Spot test result at 25 µM / Spot test result at 12.5 µM: +: Clear plaque formation; -: no plaque formation
Description: (§2) The bacterial material consisted of E. amylovora strain PGL Z1, isolated in 2013 from pear in Apulia region (Italy), and Xanthomonas campestris pv. campestris strain CFBP 1710 (X. campestris), isolated in 1975 from Brassica oleracea var. botrytis in France, which was used as a control to investigate the bactericidal activity and action mode of AMPs against two different bacteria. The bacterial strains were cultured on yeast extract peptone glucose agar (YPGA) and broth (YPG) media, consisting of 0.5% yeast extract, 0.5% peptone, 1% glucose and 1.5% agar. E. amylovora and X. campestris cell suspensions were prepared in sterile distilled water and the suspensions were adjusted to an optical density at 600 nm (OD600) of 0.1, which corresponds approximately to 10^8 CFU/mL.
The nine AMPs were screened using the spot test to select those with the best antibacterial activity against E. amylovora. Briefly, 300 µL of E. amylovora suspension (10^8 CFU/mL) was poured into the plates and maintained at room temperature for 15 min. Subsequently, 5 μL from each peptide at different concentrations (1000, 500, 250, 100, 50, 25 and 12.5 μM) was spotted onto the surface of the plates, followed by overnight incubation at 25 °C. Sterile distilled water was spotted in the plates as a control.
Supplementary Table S1. Results of the spot tests for the nine antimicrobial peptides used against Erwinia
Ascaphin-8 GF-19 + + + + + - -
DASamP1 FF-13 + + + - - - -
DASamP2 IL-14 + + + + + - -
Lycotoxin I IL-25 + + + + - - -
Maculatin 1.3 GF-21 + + + - - - -
Piscidin 1 FG-22 + + + + + - -
BP178 KL-29 + + + + + + -
RIJK2 RV-12 + + + - - - -
+: Clear plaque formation; -: no plaque formation.

immature pear fruits = type: in vivo, pear (cv. 'Recchia falsa'); conditions: 100 µL peptide at 50 and 250 µM, 5 days at room temperature, six fruits per peptide
Description: as §1

Erwinia amylovora [5] = conditions: 24 h at 25 °C in YPG, three replicates
Description: as §2
Briefly, 20 µL from each concentration (50 and 250 µM) was mixed with 180 µL of E. amylovora suspension (YPG) and incubated at 25 °C for 24 h. Six OD600 nm measures were taken over 24 h using the NanoDrop™ One/OneC Microvolume UV-Vis Spectrophotometer (ThermoFisher Scientific, Waltham, MA, USA).

Erwinia amylovora [6] = assay: Transmission electron microscopy of treated cells; type: cell-based, Erwinia amylovora strain PGL Z1; conditions: 15 min at room temperature
Description: Aliquots of E. amylovora suspensions were incubated with the KL29 for 15 min at room temperature to investigate peptide antibacterial modes of action (lytic and non-lytic). E. amylovora suspensions treated with 0.5 mg/mL of streptomycin (bacteriostatic antibiotic), and ampicillin (bactericidal antibiotic) were used as controls. Preparations were observed under TEM (FEI MORGAGNI 282D, Hillsboro, OR, USA) by the dip method: the carbon coated copper/rhodium grids were incubated with treated and untreated bacterial suspension for 2 min, and then rinsed with 200 μL of distilled water. Negative staining was obtained by floating the grids on 200 μL of 0.5 % w/v UA-zero EM STAIN (Agar-Scientific Ltd., Stansted, UK) solution and observing them under the EM using an accelerating voltage of 80 kV.

CC[C@H](C)[C@H](NC(=O)CNC(=O)[C@H](C)NC(=O)[C@@H]1CCCN1C(=O)CNC(=O)[C@H](C)NC(=O)[C@H](CC(C)C)NC(=O)[C@H](Cc1ccc(O)cc1)NC(=O)[C@H](CCCCN)NC(=O)[C@H](CC(C)C)NC(=O)[C@@H](NC(=O)[C@H](CCCCN)NC(=O)[C@H](CCCCN)NC(=O)[C@H](Cc1ccccc1)NC(=O)[C@H](CC(C)C)NC(=O)[C@H](CCCCN)NC(=O)[C@@H](N)CCCCN)[C@@H](C)CC)C(=O)NCC(=O)N[C@@H](CCCCN)C(=O)N[C@@H](Cc1ccccc1)C(=O)N[C@@H](CC(C)C)C(=O)N[C@@H](Cc1c[nH]cn1)C(=O)N[C@@H](CO)C(=O)N[C@@H](C)C(=O)N[C@@H](CCCCN)C(=O)N[C@@H](CCCCN)C(=O)N[C@@H](CC(=O)O)C(=O)N[C@@H](CCC(=O)O)C(=O)N[C@@H](CC(C)C)C(=O)O [KL29, BP178]
Fluorescence observed in treated E. amylovora cells (in words) (Erwinia amylovora [1]; peptide 50 µM): no green fluorescence
% of viability (Erwinia amylovora [1]; peptide 50 µM): 0%
Fluorescence observed in treated E. amylovora cells (in words) (Erwinia amylovora [1]; peptide 250 µM): green cells were observed
% of viability (Erwinia amylovora [1]; peptide 250 µM): 9%
Toxicity (hemolytic or cytotoxic activity) on horse erythrocytes (in words) (horse erythrocyte cells): no impact on animal or plant cells; also recorded: toxicologically safe for plant and animal cells
Reduction of fire blight symptoms (necrotic lesion diameter) (Erwinia amylovora [2]; 20 µL peptide at 50 µM into inoculation site): 74%
Reduction of fire blight symptoms (necrotic lesion diameter) (Erwinia amylovora [2]; 20 µL peptide at 250 µM into inoculation site): 85%
Lytic activity on X. campestris by fluorescence microscopy (in words) [3]: greater lytic activity at high peptide concentrations
Spot test result at 12.5 µM (Erwinia amylovora [4]; 5 µL peptide at 12.5 µM spotted on plate with E. amylovora 10^8 CFU/mL, overnight at 25 °C): -
Spot test result at 25 µM (Erwinia amylovora [4]; 5 µL peptide at 25 µM spotted on plate with E. amylovora 10^8 CFU/mL, overnight at 25 °C): +
Spot test result at 50 µM (Erwinia amylovora [4]; 5 µL peptide at 50 µM spotted on plate with E. amylovora 10^8 CFU/mL, overnight at 25 °C): +
Spot test result at 100 µM (Erwinia amylovora [4]; 5 µL peptide at 100 µM spotted on plate with E. amylovora 10^8 CFU/mL, overnight at 25 °C): +
Spot test result at 250 µM (Erwinia amylovora [4]; 5 µL peptide at 250 µM spotted on plate with E. amylovora 10^8 CFU/mL, overnight at 25 °C): +
Spot test result at 500 µM (Erwinia amylovora [4]; 5 µL peptide at 500 µM spotted on plate with E. amylovora 10^8 CFU/mL, overnight at 25 °C): +
Spot test result at 1 mM (Erwinia amylovora [4]; 5 µL peptide at 1 mM spotted on plate with E. amylovora 10^8 CFU/mL, overnight at 25 °C): +
Spot test, killing of E. amylovora at 50 µM (in words) (Erwinia amylovora [4]; peptide 50 µM): could kill E. amylovora
Toxicity (hypersensitive or cytotoxic activity) on pear fruits (in words) (immature pear fruits): no impact on animal or plant cells; also recorded: toxicologically safe for plant and animal cells
Inhibition of E. amylovora growth (OD600) (Erwinia amylovora [5]; peptide 50 µM): ~73%
Inhibition of E. amylovora growth (OD600) (Erwinia amylovora [5]; peptide 250 µM): inhibited all bacterial cell growth
TEM morphology of treated E. amylovora cells (in words) (Erwinia amylovora [6]; peptide 50 µM): damaged cell walls and the decomposition of inner structures
TEM morphology of treated E. amylovora cells (in words) (Erwinia amylovora [6]; peptide at high concentration (250 µM)): low permeabilization of the outer membrane, cytoplasmic condensation, and loss of interior appearance

Source: article PMC9824012, “Exploring Antimicrobial Peptides Efficacy against Fire Blight (Erwinia amylovora)” (Plants, 2022)
